Drawing on the Human Domainome abundance scans (Beltran et al. 2025), this text covers abundance fitness for 47 variants.

To fix the notation:
B1: Tyrosine-protein kinase ABL1, residues 64 to 120; numbered along this chain, P00519 (parent)
chain: NLFVALYDFVASGDNTLSITKGEKLRVLGYNHNGEWCEAQTKNGQGWVPSNYITPVN

± gives the uncertainty stated by the source.

The variants in this data set derive from B1. As to the kind of experiment: abundance fitness (aPCA) (normalised: wild type 0, dead -1); higher = more abundant; growth selection in yeast, the domain comes from the species named. The settings on record: Homo sapiens.
Turning to NLFVALYDFVASGDNTLSITKGEKLRVLGYNHNGEWCEAQTKNGQGWVPSNYITPQN, the abundance fitness was -0.414 ± 0.4. As to NLFVALYDFVASGDNTLSITKGEKLRVLGYNHNGEWCEAQTKNGQGWVPSNYIEPVN, the abundance fitness came to 0.157 ± 0.061.

On to NLFVALYDFVASGDNTLSITKGEKLRVLGYNHNGEWCEAQTKNGQGWVPSNYINPVN, for which the abundance fitness came to 0.027 ± 0.15. As for NLFVALYDFVASGDNTLSITKGEKLRVLGYNHNGEWCEAQTKNGQGWVPSNYIIPVN, the figure is -0.099 ± 0.079; as for NLFVALYDFVASGDNTLSITKGEKLRVLGYNHNGEWCEAQTKNGQGWVPSNYICPVN, 0.063 ± 0.069; as for NLFVALYDFVASGDNTLSITKGEKLRVLGYNHNGEWCEAQTKNGQGWVPSNYIWPVN, 0.175 ± 0.11. As for NLFVALYDFVASGDNTLSITKGEKLRVLGYNHNGEWCEAQTKNGQGWVPSNYILPVN, the figure is -0.193 ± 0.086; as for NLFVALYDFVASGDNTLSITKGEKLRVLGYNHNGEWCEAQTKNGQGWVPSNYIAPVN, -0.068 ± 0.052; as for NLFVALYDFVASGDNTLSITKGEKLRVLGYNHNGEWCEAQTKNGQGWVPSNYIDPVN, -0.476 ± 0.22. To NLFVALYDFVASGDNTLSITKGEKLRVLGYNHNGEWCEAQTKNGQGWVPSNYIVPVN belongs 0.118 ± 0.079; to NLFVALYDFVASGDNTLSITKGEKLRVLGYNHNGEWCEAQTKNGQGWVPSNYIHPVN, -0.004 ± 0.12; to NLFVALYDFVASGDNTLSITKGEKLRVLGYNHNGEWCEAQTKNGQGWVPSNYIGPVN, 0.094 ± 0.053. For NLFVALYDFVASGDNTLSITKGEKLRVLGYNHNGEWCEAQTKNGQGWVPSNYIKPVN, the abundance fitness was 0.127 ± 0.09. On to NLFVALYDFVASGDNTLSITKGEKLRVLGYNHNGEWCEAQTKNGQGWVPSNYIPPVN, for which the abundance fitness was -0.862 ± 0.14. As for NLFVALYDFVASGDNTLSITKGEKLRVLGYNHNGEWCEAQTKNGQGWVPSNYISPVN, the figure is 0.017 ± 0.064; as for NLFVALYDFVASGDNTLSITKGEKLRVLGYNHNGEWCEAQTKNGQGWVPSNYIFPVN, -0.517 ± 0.37. To NLFVALYDFVASGDNTLSITKGEKLRVLGYNHNGEWCEAQTKNGQGWVPSNYIMPVN belongs -0.013 ± 0.078. With NLFVALYDFVASGDNTLSITKGEKLRVLGYNHNGEWCEAQTKNGQGWVPSNYIRPVN, the abundance fitness was determined as 0.03 ± 0.064. As for NLFVALYDFVASGDNTLSITKGEKLRVLGYNHNGEWCEAQTKNGQGWVPSNYITPVA, the abundance fitness is 0.106 ± 0.14. As for NLFVALYDFVASGDNTLSITKGEKLRVLGYNHNGEWCEAQTKNGQGWVPSNYITNVN, the figure is 0.07 ± 0.11. To NLFVALYDFVASGDNTLSITKGEKLRVLGYNHNGEWCEAQTKNGQGWVPSNYITTVN belongs -0.015 ± 0.11; to NLFVALYDFVASGDNTLSITKGEKLRVLGYNHNGEWCEAQTKNGQGWVPSNYITHVN, -0.098 ± 0.18.

Regarding NLFVALYDFVASGDNTLSITKGEKLRVLGYNHNGEWCEAQTKNGQGWVPSNYITFVN, the abundance fitness is -0.205 ± 0.1. As for NLFVALYDFVASGDNTLSITKGEKLRVLGYNHNGEWCEAQTKNGQGWVPSNYITIVN, the figure is -0.002 ± 0.19. Take NLFVALYDFVASGDNTLSITKGEKLRVLGYNHNGEWCEAQTKNGQGWVPSNYITRVN: the abundance fitness is -0.04 ± 0.069. To NLFVALYDFVASGDNTLSITKGEKLRVLGYNHNGEWCEAQTKNGQGWVPSNYITLVN belongs -0.113 ± 0.078. As for NLFVALYDFVASGDNTLSITKGEKLRVLGYNHNGEWCEAQTKNGQGWVPSNYITMVN, the figure is 0.062 ± 0.1.

Consider NLFVALYDFVASGDNTLSITKGEKLRVLGYNHNGEWCEAQTKNGQGWVPSNYITKVN, for which the abundance fitness was -0.086 ± 0.099.

Regarding NLFVALYDFVASGDNTLSITKGEKLRVLGYNHNGEWCEAQTKNGQGWVPSNYITSVN, the abundance fitness was -0.192 ± 0.086. To NLFVALYDFVASGDNTLSITKGEKLRVLGYNHNGEWCEAQTKNGQGWVPSNYITYVN belongs 0.214 ± 0.17; to NLFVALYDFVASGDNTLSITKGEKLRVLGYNHNGEWCEAQTKNGQGWVPSNYITQVN, -0.189 ± 0.12. To NLFVALYDFVASGDNTLSITKGEKLRVLGYNHNGEWCEAQTKNGQGWVPSNYITAVN belongs 0.005 ± 0.074; to NLFVALYDFVASGDNTLSITKGEKLRVLGYNHNGEWCEAQTKNGQGWVPSNYITEVN, -0.089 ± 0.11; to NLFVALYDFVASGDNTLSITKGEKLRVLGYNHNGEWCEAQTKNGQGWVPSNYITGVN, -0.1 ± 0.074. As for NLFVALYDFVASGDNTLSITKGEKLRVLGYNHNGEWCEAQTKNGQGWVPSNYITDVN, the figure is 0.047 ± 0.12. On to NLFVALYDFVASGDNTLSITKGEKLRVLGYNHNGEWCEAQTKNGQGWVPSNYITWVN, for which the abundance fitness was -0.587 ± 0.13. As for NLFVALYDFVASGDNTLSITKGEKLRVLGYNHNGEWCEAQTKNGQGWVPSNYITCVN, the figure is -0.072 ± 0.059; as for NLFVALYDFVASGDNTLSITKGEKLRVLGYNHNGEWCEAQTKNGQGWVPSLYITPVN, -0.204 ± 0.069; as for NLFVALYDFVASGDNTLSITKGEKLRVLGYNHNGEWCEAQTKNGQGWVPSYYITPVN, -0.236 ± 0.19. Consider NLFVALYDFVASGDNTLSITKGEKLRVLGYNHNGEWCEAQTKNGQGWVPSVYITPVN, for which the abundance fitness is -0.242 ± 0.082.

For NLFVALYDFVASGDNTLSITKGEKLRVLGYNHNGEWCEAQTKNGQGWVPSSYITPVN, the abundance fitness is 0.001 ± 0.056. NLFVALYDFVASGDNTLSITKGEKLRVLGYNHNGEWCEAQTKNGQGWVPSQYITPVN: the abundance fitness is -0.48 ± 0.12. Consider NLFVALYDFVASGDNTLSITKGEKLRVLGYNHNGEWCEAQTKNGQGWVPSWYITPVN, for which the abundance fitness was -0.213 ± 0.078. Consider NLFVALYDFVASGDNTLSITKGEKLRVLGYNHNGEWCEAQTKNGQGWVPSMYITPVN, for which the abundance fitness is -0.277 ± 0.083. On to NLFVALYDFVASGDNTLSITKGEKLRVLGYNHNGEWCEAQTKNGQGWVPSPYITPVN, for which the abundance fitness is -0.056 ± 0.1. Take NLFVALYDFVASGDNTLSITKGEKLRVLGYNHNGEWCEAQTKNGQGWVPSTYITPVN: the abundance fitness is -0.039 ± 0.061. As for NLFVALYDFVASGDNTLSITKGEKLRVLGYNHNGEWCEAQTKNGQGWVPSRYITPVN, the figure is -0.076 ± 0.058.
